Data on 1 compound can be found in US10959968B2, “Methods for treating c-Met-dependent cancers” (Board of Supervisors of Louisiana State University and …, priority 2016, dated 2021).

This data set deals with MDA-MB-231/GFP human breast cancer cells. The data set is described as follows: Orthotopic breast cancer xenograft in athymic nude mice. It is filed as in vivo.

“Also recorded” adds a separate entry of the source.

As for `COc1cc(CCOC(=O)/C=C/c2cc(OC)c(O)c(OC)c2)ccc1O` [Compound 8, (E)-4-hydroxy-3-methoxyph-ethyl 3-(4-hydroxy-3,5-dimethoxyphenyl) acrylate], where the note is “10 mg/kg ip, 3×/week, listed as HVS”, the body weight result is listed as “No significant change; also recorded: without adversely affecting”. The “overt signs of toxicity” value (31 injected doses, 10 mg/kg) is reported as “did not cause any overt signs of toxicity”. The “p-c Met levels in isolated tumor tissues” value (Western blot, 10 mg/kg) is reported as “relatively lower levels”.
